1 substance from patent US7491827B2, “Aryl sulfonamides useful as inhibitors of chemokine receptor activity” (Millennium Pharmaceuticals, Inc., priority 2003, dated 2009) can be followed below.

Chains of the proteins cited; added tags and fusions are not shown.
UniProt P51685, whole entry: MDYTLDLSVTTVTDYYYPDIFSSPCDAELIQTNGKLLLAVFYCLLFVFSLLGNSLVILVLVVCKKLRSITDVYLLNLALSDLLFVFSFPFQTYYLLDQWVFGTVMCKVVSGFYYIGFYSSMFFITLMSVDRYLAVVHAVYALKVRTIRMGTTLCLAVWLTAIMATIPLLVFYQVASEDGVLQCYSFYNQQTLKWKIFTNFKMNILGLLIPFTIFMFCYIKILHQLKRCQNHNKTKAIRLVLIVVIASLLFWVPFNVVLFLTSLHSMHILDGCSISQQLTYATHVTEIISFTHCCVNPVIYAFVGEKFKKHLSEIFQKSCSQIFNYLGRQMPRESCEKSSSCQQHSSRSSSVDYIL

This assay addresses T1, cloned human CCR8 receptor stably expressed in L1.2 cells (Homo sapiens, UniProt P51685).
T1 construct: expressed in transfected cells
Description: whole cell binding screen: inhibition of biotinylated human I309 binding to CCR8 (FMAT 8100 HTS). To be noted: L1.2/hCCR8 cells, biotinylated human I-309, 10 point concentration response starting at 10 μM; read-out: Ki of compounds to inhibit I-309 binding to CCR8. The text has this: This whole cell binding screen evaluates the ability of compounds to inhibit biotinlyated human I309 binding to the cloned human CCR8 receptor stably expressed in L1.2 cells. Human CCR8 gene was amplified by PCR using PFU polymerase under standard conditions from human genomic DNA purchased from Stratagene. The PCR primers used were:
The 5′ and 3′ primers contained flanking enzyme sites (Bam Hi and Not 1,respectively), which were used to subclone the gene into pcDNA3.1. […] The CCR8 vector was then transfected into L1.2 cells (murine pre-B cells) by electroporation.
Compounds were screened using the FMAT™ 8100 HTS System (purchased from Applied Biosystems).
A suspension was prepared of L1.2/hCCR8 cells at 4.0×10^5 cells/mL in a binding buffer (Buffer consisting of Hanks Balanced Salt Solution (without phenol red), 10 mM HEPES, 0.1% Fatty Acid Free BSA, 0.02% Sodium Azide).
Dilution series of 10 mM stock concentrations of the test compounds were prepared in DMSO and further diluted into binding buffer defined above) to three times the final assay concentration.
10 point concentration response curve is constructed for each compound, starting at 10 μM (final assay concentration in Binding Buffer). […] Average fluorescence reported for each concentration was normalized to percent inhibition based on negative (no inhibitor) and positive (100 nM excess unlabeled I309 (R and D Systems)) controls.

A value given as a limit tells only on which side of the number the result lay.

Take “4-(4-Benzoylamino-naphthalene-1-sulfonylamino)-piperidine-1-carboxylic acid tert-butyl ester [Compound A-38]”: the Ki was below 500 nM.
